Assay results: patent publication US20230038201A1, “TRANSFER FILM, PHOTOSENSITIVE MATERIAL, PATTERN FORMING METHOD, MANUFACTURING METHOD OF CIRCUIT BOARD, AND MANUFACTURING METHOD OF TOUCH PANEL” (FUJIFILM Corporation, priority 2020, published 2023)

Assay: Measurement of ε365 and ε365/ε313 of compound β (molar absorption coefficients in acetonitrile)
Assay type: physicochemical
Design: key to ε365 of Compound β: molar absorption coefficient at 365 nm in (cm·mol/L)^−1
[1] = molar absorption coefficient to light of 365 nm in acetonitrile
[2] = molar absorption coefficient to light of 365 nm, in acetonitrile

Cc1cc(C)c2c(C)cc(C)nc2c1 [2,4,5,7-Tetramethylquinoline]
ε365 of Compound β [1]: <10 (cm·mol/L)^−1
ε365 of Compound β [2]: <10 (cm·mol/L)^−1

Cc1cc(C)c2c(C)cc(C)nc2c1 [Example B7, 2,4,5,7-tetramethylquinoline]
ε365 (molar absorption coefficient to light having a wavelength of 365 nm) (in acetonitrile): <10 (cm·mol/L)^−1

Cc1c2ccccc2nc2ccccc12 [Example 9-Methylacridine, 9-Methylacridine]
ε365 of Compound β [1]: 6300 (cm·mol/L)^−1
ε365 of Compound β [2]: 6300 (cm·mol/L)^−1

c1ccc2c(c1)cnc1ccccc12 [Phenanthridine]
ε365 (molar absorption coefficient to light having a wavelength of 365 nm) (in acetonitrile): 500 (cm·mol/L)^−1

Cc1nccc2ccccc12 [Example B6, 1-Me-isoquinoline]
ε365 (molar absorption coefficient to light having a wavelength of 365 nm) (in acetonitrile): <10 (cm·mol/L)^−1
ε365 of Compound β [1]: <10 (cm·mol/L)^−1
ε365 of Compound β [2]: <10 (cm·mol/L)^−1

CCCCc1ncc(C)c2ccccc12 [Example 1-n-Butyl-4-methylisoquinoline, 1-n-Butyl-4-methylisoquinoline]
ε365 of Compound β [1]: <10 (cm·mol/L)^−1
ε365 of Compound β [2]: <10 (cm·mol/L)^−1

CSc1ccc(C(=O)C(C)(C)N2CCOCC2)cc1 [Omn907, 2-methyl-1-(4-methylthiophenyl)-2-morpholinopropan-1-one]
ε365 (molar absorption coefficient to light having a wavelength of 365 nm) (in acetonitrile): 120 (cm·mol/L)^−1

CCCCc1nccc2ccccc12 [Example 1-n-Butylisoquinoline, 1-n-Butylisoquinoline]
ε365 of Compound β [1]: <10 (cm·mol/L)^−1
ε365 of Compound β [2]: <10 (cm·mol/L)^−1

COc1cc(C)nc2ccccc12 [Example 2-Methyl-4-methoxyquinoline, 2-Methyl-4-methoxyquinoline]
ε365 of Compound β [1]: <10 (cm·mol/L)^−1
ε365 of Compound β [2]: <10 (cm·mol/L)^−1

c1ccc2ncccc2c1 [Example B2, quinoline]
ε365 (molar absorption coefficient to light having a wavelength of 365 nm) (in acetonitrile): <10 (cm·mol/L)^−1
ε365 of Compound β [1]: <10 (cm·mol/L)^−1
ε365 of Compound β [2]: <10 (cm·mol/L)^−1

COc1cc(C)nc2ccccc12 [Example B8, 2-methyl-4-methoxyquinoline]
ε365 (molar absorption coefficient to light having a wavelength of 365 nm) (in acetonitrile): <10 (cm·mol/L)^−1

CCn1c2ccc(C(=O)c3ccccc3C)cc2c2cc(C(C)=NOC(C)=O)ccc21 [OXE-02, etanone,1-[9-ethyl-6-(2-methylbenzoyl)-9H-carbazol-3-yl]-,1-(O-acetyloxime)]
ε365 (molar absorption coefficient to light having a wavelength of 365 nm) (in acetonitrile): 2700 (cm·mol/L)^−1

Cc1c2ccccc2nc2ccccc12 [Example B9, 9-methylacridine]
ε365 (molar absorption coefficient to light having a wavelength of 365 nm) (in acetonitrile): 6300 (cm·mol/L)^−1

Clc1ccccn1 [Example 2-Chloropyridine, 2-Chloropyridine]
ε365 of Compound β [1]: <10 (cm·mol/L)^−1
ε365 of Compound β [2]: <10 (cm·mol/L)^−1

Nc1ccncc1 [Example 4-Aminopyridine, 4-Aminopyridine]
ε365 of Compound β [1]: <100 (cm·mol/L)^−1
ε365 of Compound β [2]: <100 (cm·mol/L)^−1

c1ccc(-c2c3ccccc3nc3ccccc23)cc1 [Example B10, 9-phenylacridine]
ε365 (molar absorption coefficient to light having a wavelength of 365 nm) (in acetonitrile): >10000 (cm·mol/L)^−1

CCCCc1nccc2ccccc12 [Example B4, 1-n-butylisoquinoline]
ε365 (molar absorption coefficient to light having a wavelength of 365 nm) (in acetonitrile): <10 (cm·mol/L)^−1

c1ccncc1 [Example B11, pyridine]
ε365 (molar absorption coefficient to light having a wavelength of 365 nm) (in acetonitrile): <10 (cm·mol/L)^−1
ε365 of Compound β [1]: <10 (cm·mol/L)^−1
ε365 of Compound β [2]: <10 (cm·mol/L)^−1

c1ccc2cnccc2c1 [Example B1, isoquinoline]
ε365 (molar absorption coefficient to light having a wavelength of 365 nm) (in acetonitrile): <10 (cm·mol/L)^−1
ε365 of Compound β [1]: <10 (cm·mol/L)^−1
ε365 of Compound β [2]: <10 (cm·mol/L)^−1

c1ccc2nc3ccccc3cc2c1 [Example B3, acridine]
ε365 (molar absorption coefficient to light having a wavelength of 365 nm) (in acetonitrile): 4900 (cm·mol/L)^−1
ε365 of Compound β [1]: 4900 (cm·mol/L)^−1
ε365 of Compound β [2]: 4900 (cm·mol/L)^−1

Cc1cc(C)c2ccccc2n1 [Example B12, 2,4-dimethylquinoline]
ε365 (molar absorption coefficient to light having a wavelength of 365 nm) (in acetonitrile): <10 (cm·mol/L)^−1
ε365 of Compound β [1]: <10 (cm·mol/L)^−1
ε365 of Compound β [2]: <10 (cm·mol/L)^−1

c1ccc(-c2c3ccccc3nc3ccccc23)cc1 [Example 9-Phenylacridine, 9-Phenylacridine]
ε365 of Compound β [1]: >10000 (cm·mol/L)^−1
ε365 of Compound β [2]: >1000 (cm·mol/L)^−1

Nc1ccncc1 [Example B13, 4-aminopyridine]
ε365 (molar absorption coefficient to light having a wavelength of 365 nm) (in acetonitrile): <100 (cm·mol/L)^−1

O=C(c1ccccc1)c1ccncc1 [4-Benzoylpyridine]
ε365 (molar absorption coefficient to light having a wavelength of 365 nm) (in acetonitrile): 69 (cm·mol/L)^−1

CCCCc1ncc(C)c2ccccc12 [Example B5, 1-n-butyl-4-methylisoquinoline]
ε365 (molar absorption coefficient to light having a wavelength of 365 nm) (in acetonitrile): <10 (cm·mol/L)^−1
